Values quoted from earlier work in publication PMC3426300.

By UniProt entry, the sequences of proteins in these tests, tags left out. Residues count along the entry.
UniProt Q00987, 25-109: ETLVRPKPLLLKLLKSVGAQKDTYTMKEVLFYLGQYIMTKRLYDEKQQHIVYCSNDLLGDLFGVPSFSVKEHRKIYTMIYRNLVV

Target: MDM2 25-109 (Homo sapiens) (UniProt Q00987)

For DPMI-γ, the Kd is given as 53 nM.
